Test results from PubChem BioAssay AID862 (The Scripps Research Institute Molecular Screening Center, 2007).
The entries are a selection whose mix differs from that of the whole data set. The source made the active and inactive calls.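 Rule for the calls: active = inhibition above the mean inhibition across all screened compounds plus 3 SD (cut at about 44% in these data); inactive = the rest.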

Test: blockers of STAT3 transcriptional signaling – U3A cells, luciferase, luminescence, MLSCN library, primary screen (AID 862);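 note: 0% = DMSO only wells and 100% = 100 µM nifuroxazide control wells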
Details: IL-6 STAT3-luciferase reporter, at 5.5 µM, hits give high values, host cell line lacks STAT1

| Compound | inhibition |
| --- | --- |
| CP(=O)(OC12CC3CC(CC(C3)C1)C2)OC12CC3CC(CC(C3)C1)C2 | inactive: 6.9% |
| CCOC(=O)c1ccc(NP(C)(=O)Oc2ccc(Cl)cc2)cc1 (stereo not given) | inactive: 1% |
| CN(C)C(=O)c1c([N+](=O)[O-])cc([N+](=O)[O-])cc1[N+](=O)[O-] | inactive: 3.1% |
| CP(=O)(Nc1ccc(Cl)cc1)Oc1ccc(F)cc1 (stereo not given) | inactive: 4.1% |
| COc1ccccc1OP(C)(=O)Nc1ccccc1Br (stereo not given) | inactive: 14.6% |
| CC(C)(C)c1ccc(OP(C)(=O)O)cc1 | inactive: 4.3% |
| CCc1ccc(OP(C)(=O)Nc2cccnc2)cc1 (stereo not given) | inactive: -5.3% |
| CP(=O)(Oc1ccccc1)N1CCOC1=O (stereo not given) | inactive: 15.4% |
| COc1ccccc1OP(C)(=O)Nc1c(C)n(C)n(-c2ccccc2)c1=O (stereo not given) | inactive: -3.1% |
| COc1ccc(OP(C)(=O)Nc2ccc(Br)cc2)cc1 (stereo not given) | inactive: 5% |
| CCN(CC)CC(O)COC(=O)C(O)(c1ccccc1)C1CCCCC1 (stereo not given) | inactive: -2.1% |
| CCc1ccc(OP(C)(=O)O)cc1 | inactive: 5.2% |
| COc1ccccc1OP(C)(=O)Nc1ccc(C)cc1C (stereo not given) | inactive: 4.2% |
| CP(=O)(Nc1ccccn1)Oc1ccccc1 (stereo not given) | inactive: 2.8% |
| Cc1c(NP(C)(=O)Oc2ccc(C(C)C)cc2)c(=O)n(-c2ccccc2)n1C (stereo not given) | inactive: 1.7% |
| O=[N+]([O-])c1cc([N+](=O)[O-])c(Nc2ccccn2)c([N+](=O)[O-])c1 | inactive: 19.4% |
| CN(C)CCOC(=O)C(O)(c1ccccc1)C1CCCC1 (stereo not given) | inactive: -1% |
| COc1ccc(OP(C)(=O)Nc2ccccn2)cc1 (stereo not given) | inactive: 7% |
| CP(=O)(Nc1ccc(Cl)cc1Cl)Oc1ccccc1 (stereo not given) | inactive: -4.8% |
| CP(=O)(OCCOc1ccccc1)OCCOc1ccccc1 | inactive: 16.6% |
| Cc1nc2ccc3ccccc3c2o1.O=[N+]([O-])c1cc([N+](=O)[O-])c(O)c([N+](=O)[O-])c1 | inactive: -1.7% |
| COc1ccc(OP(C)(=O)Nc2ccccc2Br)cc1 (stereo not given) | inactive: 4% |
| COc1ccccc1OP(C)(=O)Nc1ccc(C)c(C)c1 (stereo not given) | inactive: 5.8% |
| Cc1cc(C)cc(OP(C)(=O)Nc2cccc(C(F)(F)F)c2)c1 (stereo not given) | inactive: 2.6% |

| Compound | inhibition |
| --- | --- |
| CP(=O)(Nc1ccccc1)Oc1ccc(F)cc1 (stereo not given) | inactive: 9.5% |
| CCN(CC)CCCOC(=O)C(O)(c1ccccc1)C1CCCCC1 (stereo not given) | inactive: 7% |
| COc1ccc(OP(C)(=O)Nc2ccc(SC(F)(F)F)cc2)cc1 (stereo not given) | inactive: 3.3% |
| CCOC(=O)c1ccc(NP(C)(=O)Oc2ccc(F)cc2)cc1 (stereo not given) | inactive: 4.9% |
| O=C(OCCN1CCN(CCOCc2ccccc2)CC1)C(O)(c1ccccc1)c1ccccc1 | inactive: 14.2% |
| CC(C)c1ccc(OP(C)(=O)Nc2ccc(SC(F)(F)F)cc2)cc1 (stereo not given) | inactive: 0.8% |
| CP(=O)(Nc1ccccc1F)Oc1ccccc1 (stereo not given) | inactive: -1.9% |
| Cc1ccccc1NP(C)(=O)Nc1ccccc1C | inactive: 3.7% |
| CP(=O)(Nc1ccc2c(c1)OCCO2)Oc1ccccc1 (stereo not given) | inactive: 8.8% |
| CCOP(C)(=S)SCC(=O)NC(C)(CC)C(=O)O (stereo not given) | inactive: 5% |
| O=[N+]([O-])c1cc([N+](=O)[O-])c(NCC2CCS(=O)(=O)C2)c([N+](=O)[O-])c1 (stereo not given) | inactive: 0.6% |
| COc1ccc(NP(C)(=O)Oc2ccccc2OC)cc1 (stereo not given) | inactive: 13.4% |
| CN(C)CCOC(=O)C(O)(c1ccccc1)C1CCCCC1 (stereo not given) | inactive: 4% |
| COc1ccc(OP(C)(=O)Nc2cccc(Br)c2)cc1 (stereo not given) | inactive: -0.7% |
| CCCOc1ccc(NP(C)(=O)Oc2ccc(Cl)cc2)cc1 (stereo not given) | inactive: -6.7% |
| CP(=O)(Nc1ccc(SC(F)(F)F)cc1)Oc1ccccc1 (stereo not given) | inactive: -4.1% |
| CN1CCCCC1COC(=O)C1(O)c2ccccc2CCc2ccccc21 (stereo not given) | inactive: 3.2% |
| COc1ccccc1OP(C)(=O)Nc1c(C)cccc1C (stereo not given) | inactive: 4.1% |
| Cc1nc2ccc3ccccc3c2s1.O=[N+]([O-])c1cc([N+](=O)[O-])c(O)c([N+](=O)[O-])c1 | inactive: 11.6% |
| O=[N+]([O-])c1cc([N+](=O)[O-])c(-n2nnc3ccccc32)c([N+](=O)[O-])c1 | inactive: -0.4% |
| Cc1cc(C)cc(OP(C)(=O)Nc2ccccn2)c1 (stereo not given) | inactive: 0.2% |
| CP(=O)(Nc1cccc(Br)c1)Oc1ccccc1 (stereo not given) | inactive: 7.6% |
| Cc1ccc(C)c(NP(C)(=O)Oc2ccccc2)c1 (stereo not given) | inactive: 5.5% |
| Cc1cc(C)cc(OP(C)(=O)Nc2ccc(C)cc2C)c1 (stereo not given) | inactive: 7.4% |

| Compound | inhibition |
| --- | --- |
| CCOC(=O)c1ccc(NP(C)(=O)Oc2cc(C)cc(C)c2)cc1 (stereo not given) | inactive: -2.6% |
| CC1=NCCc2c1[nH]c1ccccc21.O=[N+]([O-])c1cc([N+](=O)[O-])c(O)c([N+](=O)[O-])c1 | inactive: -5.3% |
| COc1ccc(OP(C)(=O)Nc2cccc(F)c2)cc1 (stereo not given) | inactive: -4.9% |
| COc1ccccc1OP(C)(=O)Nc1cc(Cl)ccc1C (stereo not given) | inactive: 7% |
| Cc1cc(C)cc(OP(C)(N)=O)c1 (stereo not given) | inactive: 7.6% |
| CCOC(=O)c1ccc(NP(C)(=O)Oc2ccccc2)cc1 (stereo not given) | inactive: -6.8% |
| Cc1ccc(NP(C)(=O)Oc2ccccc2)c(C)c1 (stereo not given) | inactive: 0.9% |
| COc1ccccc1OP(C)(=O)Nc1ccc(C)cc1 (stereo not given) | inactive: 13.1% |
| Cc1cccc(C)c1OP(C)(N)=O (stereo not given) | inactive: 17.1% |
| CC(C)(C)c1ccc(OP(C)(=O)Nc2ccc(SC(F)(F)F)cc2)cc1 (stereo not given) | inactive: 4.6% |
| O=[N+]([O-])c1ccc2c(c1)C=Nc1ccccc1O2 | inactive: -4.4% |
| CCN(CC)CCCOC(=O)C(O)(c1ccccc1)c1ccccc1 | inactive: -2.8% |
| CP(=O)(Nc1ccccn1)Oc1ccc(Cl)cc1 (stereo not given) | inactive: -10.4% |
| CCOP(C)(=S)SCC(=O)NC(C)C(=O)O (stereo not given) | inactive: 4.1% |
| CCOC(=O)c1ccc(NP(C)(=O)Oc2ccc(OC)cc2)cc1 (stereo not given) | inactive: 10.2% |
| Cc1cc(C)cc(OP(C)(=O)Nc2ccc(SC(F)(F)F)cc2)c1 (stereo not given) | inactive: -4.9% |
| CP(=O)(NC(=O)Nc1ccccc1)Oc1ccccc1 (stereo not given) | inactive: 3.2% |
| CP(=O)(Oc1ccccc1)OC(c1ccccc1)C(F)(F)F (stereo not given) | inactive: -4.9% |
| Cc1cccc(C)c1OP(C)(=O)Nc1ccc(SC(F)(F)F)cc1 (stereo not given) | inactive: -7.4% |
| COc1ccccc1OP(C)(=O)Nc1ccccc1 (stereo not given) | inactive: 4.9% |
| CP(=O)(Nc1ccccc1Br)Oc1ccccc1 (stereo not given) | inactive: 15.1% |
| CP(=S)(Nn1cnnc1)Oc1ccccc1 (stereo not given) | inactive: 9.8% |
